Source: US6350760B1, “Substituted piperidines as melanocortin-4 receptor agonists” (Merck & Co., Inc., priority 1999, dated 2002)

Chains of the proteins cited; added tags and fusions are not shown. Lines headed by an entry give the natural chain unless they say otherwise; changes in a name come on top.
UniProt Q01726: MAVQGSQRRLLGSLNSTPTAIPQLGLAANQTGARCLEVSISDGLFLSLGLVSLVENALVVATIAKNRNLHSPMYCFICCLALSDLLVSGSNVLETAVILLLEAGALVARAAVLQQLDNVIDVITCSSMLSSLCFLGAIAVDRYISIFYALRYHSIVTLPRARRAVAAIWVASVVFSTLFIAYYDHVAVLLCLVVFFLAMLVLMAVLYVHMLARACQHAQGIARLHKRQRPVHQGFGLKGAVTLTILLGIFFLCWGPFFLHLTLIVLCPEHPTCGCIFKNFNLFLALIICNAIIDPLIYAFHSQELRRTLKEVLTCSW
UniProt P41968: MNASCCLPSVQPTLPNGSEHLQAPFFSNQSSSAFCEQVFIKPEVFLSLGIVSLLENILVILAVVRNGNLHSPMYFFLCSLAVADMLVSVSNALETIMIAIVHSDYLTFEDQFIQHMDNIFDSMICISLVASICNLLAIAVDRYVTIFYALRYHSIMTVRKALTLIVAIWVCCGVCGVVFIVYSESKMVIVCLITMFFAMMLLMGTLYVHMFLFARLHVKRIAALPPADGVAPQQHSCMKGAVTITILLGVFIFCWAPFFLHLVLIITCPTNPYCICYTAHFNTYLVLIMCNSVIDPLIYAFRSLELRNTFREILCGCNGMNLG

Assays:
[1] = target: T1, human MC-1R (Homo sapiens, UniProt Q01726); assay: Functional cell based cAMP assay; conditions: human receptor, average of at least 3 determinations
T1 construct: expressed in transfected cells; host or cells: CHO- or L-cells or other eukaryotic cells
From the text: (§1) B. Functional assay. Functional cell based assays were developed to discriminate melanocortin receptor agonists from antagonists.
(§2) Cells (for example, CHO- or L-cells or other eukaryotic cells) expressing a human melanocortin receptor (see e.g. Yang-YK; Ollmann-MM; Wilson-BD; Dickinson-C; Yamada-T; Barsh-GS; Gantz-I; Mol-Endocrinol. 1997 Mar; 11(3): 274-80) were dissociated from tissue culture flasks by rinsing with Ca and Mg free phosphate buffered saline (14190-136, Life Technologies, Gaithersburg, Md.) and detached following 5 minutes incubation at 37° C. with enzyme free dissociation buffer (S-014-B, Specialty Media, Lavellette, N.J.). Cells were collected by centrifugation and resuspended in Earle's Balanced Salt Solution (14015-069, Life Technologies, Gaithersburg, Md.) with additions of 10 mM HEPES pH 7.5, 5 mM MgCl2, 1 mM glutamine and 1 mg/ml bovine serum albumin. Cells were counted and diluted to 1 to 5×10^6/ml. […]
(§3) cAMP was measured in an aliquot of the cell lysate with the Amersham (Arlington Heights, Ill.) cAMP detection assay (RPA556). […]
(§4) IC50's were determined in a competition binding assay with ^125I-NDP-alpha-MSH as ligand using crude membranes prepared from cell lines expressing the appropriate MC-R. Functional EC50's were determined by application of compound to intact cells followed by direct measurement of cAMP as described in the Biological Assays section above.

[2] = target: T2, human MC-3R (Homo sapiens, UniProt P41968); assay: Functional cell based cAMP assay; conditions: human receptor, average of at least 3 determinations
T2 construct: expressed in transfected cells; host or cells: CHO- or L-cells or other eukaryotic cells
From the text: as §1, §2, §3, §4

[3] = target: T1, human MC-1R; assay: Membrane binding assay, competition with 125I-NDP-alpha-MSH; conditions: human receptor; average of at least 3 determinations
Protocol: (§5) A. Binding Assay. The membrane binding assay was used to identify competitive inhibitors of ^125I-NDP-alpha-MSH binding to cloned human MCRs expressed in L- or CHO-cells.
(§6) Cell lines expressing melanocortin receptors were grown in T-180 flasks containing selective medium of the composition: 1 L Dulbecco's modified Eagles Medium (DMEM) with 4.5 g L-glucose, 25 mM Hepes, without sodium pyruvate, (Gibco/BRl); 100 ml 10% heat-inactivated fetal bovine serum (Sigma); 10 ml 10,000 unit/ml penicillin & 10,000 ug/ml streptomycin (Gibco/BRl); 10 ml 200 mM L-glutamine (Gibco/BRl); 1 mg/ml Geneticin (G418) (Gibco/BRl). The cells were grown at 37° C. with CO2 and humidity control until the desired cell density and cell number was obtained.
(§7) The medium was poured off and 10 mls/monolayer of enzyme-free dissociation media (Specialty Media Inc.) was added. The cells were incubated at 37° C. for 10 minutes or until cells sloughed off when flask was banged against hand.
(§8) The cells were harvested into 200 ml centrifuge tubes and spun at 1000 rpm, 4° C., for 10 min. […]
as §4

[4] = target: T2, human MC-3R; assay: as above; conditions: human receptor; average of at least 3 determinations
Protocol: as §5, §6, §7, §8, §4

EC50 [1]: 1300 nM | EC50 [2]: 1200 nM | IC50 [3]: 2100 nM | IC50 [4]: 540 nM
SMILES: O=C(N[C@H](Cc1ccc(Cl)cc1)C(=O)N1CCC(Cn2cncn2)(C2CCCCC2)CC1)[C@H]1Cc2ccccc2CN1 [Example 2]
